Experiments:
in vitro = conditions: human, A549 lung carcinoma cells
[1] = 60 min
A549 lung carcinoma = conditions: read-out: CC50 A549; MTT assay
[2] = test system: HepG2 hepatocellular carcinoma; conditions: read-out: CC50 HepG2; MTT assay

Compound: O=C(O)c1ccc(C(F)(F)F)cc1C(=O)c1ccc(Sc2ccc(Cl)c(Cl)c2)c([N+](=O)[O-])c1 [8e, 2-(4-((3,4-Dichlorophenyl)thio)-3-nitrobenzoyl)-4-(trifluoromethyl)benzoic acid]
- CC50 (in vitro): 1840 µM

Compound: NC(=O)N1c2ccccc2C=Cc2ccccc21 [CBZ, carbamazepine]
- % Metabolism 50 μM ([1]; 50 μM, 1 mg/ml rat liver microsome, NADPH, 37 °C): 48.86 ± 5.27%
- average percentage of the remaining compound ([1]; average over 10 μM and 50 μM, rat liver microsomes): 45%

Compound: Cisplatin [DDP]
- CC50 (A549 lung carcinoma): 5.26 ± 0.32 µM
- CC50 [2]: 4.35 ± 0.23 µM

Reference: article PMC7680358 (European journal of medicinal chemistry, 2020)
